This test has as its target Ribonucleoside-diphosphate reductase large subunit (Herpes simplex virus (type 1 / strain 17), UniProt P08543). The test is described as follows: Inhibitory activity against HSV-1 Ribonucleoside diphosphate reductase was determined. Further details: species or system Human alphaherpesvirus 1.

The IC50 is the midpoint of a concentration-inhibition curve.

As for `CC(C)C[C@H](NC(=O)[C@H](CC(=O)O)NC(=O)[C@H](CC(N)=O)NC(=O)[C@@H](NC(=O)[C@@H](N)C(C)C)C(C)C)C(=O)O`, the IC50 came to 36 µM.
